System: NCI-28H cells
Conditions: 72 hrs

## CO[C@@]12[C@H](COC(N)=O)C3=C(C(=O)C(C)=C(N)C3=O)N1C[C@@H]1N[C@@H]12 [mitomycin, Mitomycin]
  cytotoxicity to NCI-28H cells, comparison: clear cytotoxic effect

— patent US20210236668A1, “COMPOSITIONS FOR RADIOTHERAPY AND USES THEREOF” (The Trustees of Columbia University in the City of New York, priority 2018, published 2021)
